Tested on: GM-HSPC and their progeny
Settings: drug treated mice
Description: All animals except control mice received 20 mg/kg O^6BG (Sigma-Aldrich, St. Louis, Mo.) followed by 5 mg/kg BCNU (Sigma-Aldrich, St. Louis, Mo.) mouse 1.5 hour later via IP injection. Drug doses were administered at either at the 7th and 8th or 7th, 8th, and 9th weeks post-transplantation. O^6BG was prepared in 35% PEG-400 (Sigma-Aldrich, St. Louis, Mo.) and 60% injectable saline.
Lentiviral vector was produced by calcium phosphate precipitation in HEK293T cells as previously described by Li M J et al. (2005). CD34+ cells were pre-stimulated overnight in SFT6. Lentiviral transduction was conducted at 1×10^6 cells/mL on Retronectin™ (Takara, Otsu-Shiga Japan)-coated non-tissue culture T-75 flask for 24 h in the presence of […] rapamycin (Sigma-Aldrich, St. Louis, Mo.). […]
Mice were necropsied at 16 or 25 weeks post transplantation for analysis of engraftment. […] Samples were analyzed using a Gallios flow cytometer (Beckman Coulter, Hialeah, Fla.) and data analyzed with FCS Express software (De Novo Software, Los Angeles, Calif.).
Lentiviral vectors expressing unique combinations of small anti-HIV RNAs expressed from a naturally occurring micro RNA cluster (MCM-7) are known. […] Two weeks later (11 weeks following transplantation) animals were necropsied and the level of engraftment of the spleen and bone marrow were determined.

Question: With “O^6-benzylguanine; bis-chloronitrosourea [O^6BG/BCNU]” as the substance, how does the “Deficiencies in lineage development” value read?
Answer: No deficiencies
